Results: patent publication US8962670B2, “Anti-cancer agents” (UWM Research Foundation, Inc., priority 2011, dated 2015)
Read-outs that look alike come from different tables or passages of the source. Only a part of the results on these compounds is given; other tests are left out.

Tests used:
OVCAR-8 (Ovarian) = experiment: NCI 60 panel GI50; assay type: cell-based, human
[1] = test system: SN12C (Renal Cancer cells); experiment: Cancer cell growth inhibition (Example 14); details: 10 μM, 48 h
Procedure: (§1) The abilities of compounds 37, 38 and 40 to inhibit cancer cell growth were evaluated. Results are illustrated in FIG. 4A: Four human cancer cell lines (SR, NCI-H460, CAKI-1, and SN12C) were incubated with 10 μM of compounds 40, 38 and 37 for 48 h (grey bar—37; black bar—40; lined bar—38). […] .

[2] = test system: NCI-H460 (Non-small Cell Lung Cancer cells); experiment: Cancer cell growth inhibition (Example 14); details: 10 μM, 48 h
Procedure: as §1

[3] = test system: CAKI-1 (Renal Cancer cells); experiment: Cancer cell growth inhibition (Example 14); details: 10 μM, 48 h
Procedure: as §1

SR cells (Leukemia cell) = experiment: Cancer cell growth inhibition (Example 14); details: 10 μM, 48 h
Procedure: as §1

| Compound | GI50 (OVCAR-8 (Ovarian)) [µM] | inhibition [1] [%] | inhibition [2] [%] | cross-linking yield (49 mer DNA duplex 292; 1.0 mM H2O2 + 2.0 mM compound) [%] | inhibition [3] [%] | inhibition (SR cells (Leukemia cell)) | cross-linking yield (49 mer DNA duplex 292; 50 μM H2O2 + 100 μM compound) [%] | cross-linking yield (49 mer DNA duplex 292; 100 μM H2O2 + 200 μM compound) [%] | cross-linking yield (49 mer DNA duplex 292; 250 μM H2O2 + 500 μM compound) [%] | cross-linking yield (49 mer DNA duplex 292; 500 μM H2O2 + 1.0 mM compound) [%] | cross-linking yield (49 mer DNA duplex 292; 1.5 mM H2O2 + 3.0 mM compound) [%] | cross-linking yield (49 mer DNA duplex 292; 2.0 mM H2O2 + 4.0 mM compound) [%] | concentration of H2O2 at which DNA crosslinking was observed (as low as) (49 mer DNA duplex 292; lanes 3 and 11) [µM] |
| --- | --- | --- | --- | --- | --- | --- | --- | --- | --- | --- | --- | --- | --- |
| OB(O)c1ccc(N(CCCl)CCCl)cc1 | 4.2 |  |  |  |  |  |  |  |  |  |  |  |  |
| CC1(C)OB(c2ccc(C[N+](C)(CCCl)CCCl)cc2)OC1(C)C [Compound 40, N,N-Bis(2-chloroethyl)-N-methyl-N-[4-(4,4,5,5-tetramethyl-1,3,2-dioxaborolan-2-yl)phenyl]methanaminium bromide] |  | 57 | 85 | 28 |  |  |  |  |  |  |  |  |  |
| C[N+](CCCl)(CCCl)Cc1ccc(B(O)O)cc1 |  | 57 | 85 | 27 | 66 | about 90% | 2.0 | 4 | 11 | 17 | 35 | 43 | 50 |
